A short description of the series: Rectal absorption of drugs from aqueous microenema in rats, percent bioavailability versus intravenous administration. The settings on record: vs intravenous. On the procedure:
Experiments were performed with rats wherein each animal received an aqueous microenema applied to the rectal cavity. The microenemas contained target drug entity (amount shown in table) in the presence or absence of 5 mg lauroylcholine chloride or palmitoylcholine iodide. Blood levels were monitored and the amount of drug absoreed calculated against intravenous administration and expressed as percent bioavailability.
The amount of drug absorbed is expressed as percent bioavailability versus intravenous administration
Blood was collected and sodium cefoxitin measured. Absorption of sodium cefoxitin is expressed as percent bioavailability versus intravenous administration.

Consider one substance from patent publication US4822773A (Merck & Co., Inc., priority 1987, dated 1989).

Consider Gentamicin sulfate, for which the “Percent Bioavailability (mean ± SD) with Control” value (target drug alone (no choline ester), dose as in table (2.5 mg; polypeptide 0.1 mg)) is listed as 4 ± 1.2%. The “Percent Bioavailability (mean ± SD) with Lauroyl choline chloride” value (target drug plus 5 mg lauroylcholine chloride) is recorded as 132 ± 43.3%.
